# Assays:
# Protein sequences, listed by entry. Tags and fused reporters are not part of them. Lines headed by an entry give the natural chain unless they say otherwise; changes in a name come on top.
# UniProt Q06187: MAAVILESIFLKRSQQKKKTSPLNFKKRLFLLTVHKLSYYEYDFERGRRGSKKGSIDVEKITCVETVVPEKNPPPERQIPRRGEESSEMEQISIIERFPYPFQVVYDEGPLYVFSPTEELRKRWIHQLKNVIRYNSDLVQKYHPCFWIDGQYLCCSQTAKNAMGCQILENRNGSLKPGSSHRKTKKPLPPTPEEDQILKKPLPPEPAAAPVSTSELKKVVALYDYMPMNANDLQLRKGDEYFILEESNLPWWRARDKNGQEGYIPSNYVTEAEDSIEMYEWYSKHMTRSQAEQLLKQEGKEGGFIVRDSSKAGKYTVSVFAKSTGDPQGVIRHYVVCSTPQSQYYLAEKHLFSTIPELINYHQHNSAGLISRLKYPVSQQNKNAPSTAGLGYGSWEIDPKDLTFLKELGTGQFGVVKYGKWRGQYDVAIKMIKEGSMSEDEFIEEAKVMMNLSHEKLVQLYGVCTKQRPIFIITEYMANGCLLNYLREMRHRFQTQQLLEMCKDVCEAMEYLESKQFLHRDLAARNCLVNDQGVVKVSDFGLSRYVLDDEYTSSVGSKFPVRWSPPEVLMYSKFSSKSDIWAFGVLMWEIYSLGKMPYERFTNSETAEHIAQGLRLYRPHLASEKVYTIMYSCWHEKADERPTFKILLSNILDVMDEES
# Plasma = settings: human, 4 h
# [1] = target: Tyrosine-protein kinase BTK (Homo sapiens, UniProt Q06187)
SMILES,PPB (Plasma) [%],IC50 [1] [nM]
Cc1c(-c2cc(Nc3ccncn3)c(=O)n(C)c2)cccc1N1CCc2c(sc3c2CCCC3)C1=O,99,
Cn1cc(-c2cccc(N3CCc4c(sc5c4CCCC5)C3=O)c2CO)cc(Nc2ccncn2)c1=O,97,
Cn1cc(-c2cc(F)cc(N3CCn4c(cc5c4CCCC5)C3=O)c2CO)cc(Nc2ccc(N3CCN(C4COC4)CC3)cn2)c1=O,,4
